This is an account of results in US10350189B2, “Method for transnasal delivery of blood-brain barrier permeation agent and therapeutic agent” (priority 2015, dated 2019).

This assay deals with BBB of the rat test subjects. In words: BBB permeability by Evans Blue concentration in brain after intranasal topical application to the SPG. Type of assay: in vivo. The following applies: transnasal rivastigmine, Evans Blue IV. On the procedure: Delivery of a cholinesterase inhibitor at a low dosage is be effective for permeabilizing the BBB. By way of illustration, a rat model was used to test certain embodiments of the present method. In this experiment, normal saline solution (0.90% w/v NaCl in water) was used as a control, and three different concentrations of a cholinesterase inhibitor (rivastigmine) were administered transnasally to permeabilize the BBB of the rat test subjects. Then, to test permeabilization, a solution of Evans Blue dye (molecular weight=960.81 kDa; available from Sigma-Aldrich) was administered intravenously, with the rats' brain tissue being evaluated to determine the permeabilization by cholinesterase inhibitor dosage concentration, and over time. The increased permeabilization lasted about one hour. […] The “mg/kg” dosage was metered to the weight of each rat being tested, and the μg/mg dry weight measures the Evans Blue in harvested CNS tissue.
Male Sprague-Dawley rats (Harlan, Indianapolis, Ind.) weighing 300-350 g were allowed to acclimate for at least 4 days prior to experimentation. […]
Rats were anesthetized with urethane (1.5 g/kg, IP) and immobilized on a surgical board equipped with a controlled heating pad. Core temperature, measured via rectal probe, was maintained at 37±1° C. […]

Consider `CCN(C)C(=O)Oc1cccc([C@H](C)N(C)C)c1` [rivastigmine], for which the “duration of increased permeabilization” value is reported as “about one”.
